Molecular target: UDP-glucose dehydrogenase (Homo sapiens, UniProt O60701)
Assay: High throughput screening for inhibitors of UDP-glucose dehydrogenase (NADH fluorescence)
Assay type: biochemical
Conditions: compound plates 20 μL/well of 25 μg/mL compound in 2.5% DMSO; relative to DMSO negative and UDP-xylose positive controls; higher POC = more inhibitory

Amino acid sequences for entries named in this document (tags omitted). A change or cut given only in a name is not applied to a line headed by its entry.
UniProt O60701: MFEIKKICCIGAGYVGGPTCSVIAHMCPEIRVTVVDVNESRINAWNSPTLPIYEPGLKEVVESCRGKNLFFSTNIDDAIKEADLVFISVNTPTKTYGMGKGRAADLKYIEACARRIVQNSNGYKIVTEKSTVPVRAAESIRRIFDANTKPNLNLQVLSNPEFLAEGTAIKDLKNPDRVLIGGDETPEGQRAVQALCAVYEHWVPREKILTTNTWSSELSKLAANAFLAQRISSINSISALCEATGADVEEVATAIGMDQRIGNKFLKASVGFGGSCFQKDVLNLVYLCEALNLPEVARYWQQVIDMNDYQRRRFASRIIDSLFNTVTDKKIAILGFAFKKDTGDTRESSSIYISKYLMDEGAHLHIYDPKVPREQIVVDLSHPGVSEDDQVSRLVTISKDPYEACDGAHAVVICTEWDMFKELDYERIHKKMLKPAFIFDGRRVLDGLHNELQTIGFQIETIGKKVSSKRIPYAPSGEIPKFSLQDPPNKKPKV

| SMILES | POC (Percent of Controls) [%] |
| --- | --- |
| C1CN(c2nonc2-[n+]2nc3nonc3[n-]2)CCO1 | 105 |
| Cc1c2no[n+]([O-])c2c(C)[n+]([O-])[n+]1[O-] | 63 |

— US11478457B2, “Castration-resistant prostate cancer” (priority 2015, dated 2022)
